These results are taken from patent US10167280B2, “Substituted oxopyridine derivatives” (BAYER PHARMA AKTIENGESELLSCHAFT, priority 2014, dated 2019).

Chains of the proteins cited; added tags and fusions are not shown. Residues count along the entry.
UniProt P03952, 20-390 partner: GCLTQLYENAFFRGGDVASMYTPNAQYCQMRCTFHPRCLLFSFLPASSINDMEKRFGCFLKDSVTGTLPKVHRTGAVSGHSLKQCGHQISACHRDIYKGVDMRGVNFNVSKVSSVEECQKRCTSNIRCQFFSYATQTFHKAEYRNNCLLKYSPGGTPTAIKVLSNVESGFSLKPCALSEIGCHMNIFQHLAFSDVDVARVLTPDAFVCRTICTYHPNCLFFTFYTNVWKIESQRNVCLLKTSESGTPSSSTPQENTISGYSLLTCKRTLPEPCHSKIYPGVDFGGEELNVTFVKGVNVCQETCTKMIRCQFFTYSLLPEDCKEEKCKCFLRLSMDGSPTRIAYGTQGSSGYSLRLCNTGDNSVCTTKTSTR
UniProt P03952, 391-638: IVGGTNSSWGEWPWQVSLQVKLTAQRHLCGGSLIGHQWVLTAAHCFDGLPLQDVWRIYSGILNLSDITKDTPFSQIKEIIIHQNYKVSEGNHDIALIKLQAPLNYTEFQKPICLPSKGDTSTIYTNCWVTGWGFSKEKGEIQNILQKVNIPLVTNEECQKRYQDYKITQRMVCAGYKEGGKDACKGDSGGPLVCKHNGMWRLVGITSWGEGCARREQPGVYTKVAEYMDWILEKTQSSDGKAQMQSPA
UniProt P03951, 19-387 partner: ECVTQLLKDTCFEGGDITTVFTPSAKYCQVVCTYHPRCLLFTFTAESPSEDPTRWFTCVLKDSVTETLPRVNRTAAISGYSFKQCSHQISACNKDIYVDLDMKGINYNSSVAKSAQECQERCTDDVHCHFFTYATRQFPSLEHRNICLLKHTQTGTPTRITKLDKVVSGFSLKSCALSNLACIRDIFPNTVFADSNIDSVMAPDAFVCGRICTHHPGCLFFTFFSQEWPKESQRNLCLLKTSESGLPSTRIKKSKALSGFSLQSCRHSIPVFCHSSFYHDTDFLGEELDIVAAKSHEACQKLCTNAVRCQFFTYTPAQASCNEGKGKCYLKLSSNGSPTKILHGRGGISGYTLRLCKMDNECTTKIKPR
UniProt P03951, 388-625: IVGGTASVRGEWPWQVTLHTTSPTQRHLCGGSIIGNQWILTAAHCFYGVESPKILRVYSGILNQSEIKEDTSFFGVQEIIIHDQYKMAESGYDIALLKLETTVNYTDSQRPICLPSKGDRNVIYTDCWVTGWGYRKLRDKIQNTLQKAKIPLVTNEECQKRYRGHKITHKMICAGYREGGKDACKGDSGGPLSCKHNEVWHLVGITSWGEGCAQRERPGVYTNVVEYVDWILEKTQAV

Test [1] has as its target human plasma kallikrein (Homo sapiens (Human), UniProt P03952). The test is described as follows: Determination of the plasma kallikrein activity (fluorogenic peptide substrate H-Pro-Phe-Arg-AMC). It counts as biochemical. Conditions: Table B; plasma kallikrein inhibition, 30 min at 22° C., fluorescence. Here is the method:
To determine the plasma kallikrein inhibition of the substances according to the invention, a biochemical test system is used which utilizes the reaction of a peptidic plasma kallikrein substrate to determine the enzymatic activity of human plasma kallikrein. Here, plasma kallikrein cleaves from the peptic plasma kallikrein substrate the C-terminal aminomethylcoumarin (AMC), the fluorescence of which is measured. The determinations are carried out in microtitre plates.
1 μl of the diluted substance solutions is placed into each of the wells of white microtitre plates from Greiner (384 wells). 20 μl of assay buffer (50 mM Tris/HCl pH 7.4; 100 mM sodium chloride solution; 5 mM of calcium chloride solution; 0.1% of bovine serum albumin) and 20 μl of plasma kallikrein from Kordia (0.6 nM in assay buffer) are then added successively. After 15 min of incubation, the enzyme reaction is started by addition of 20 μl of the substrate H-Pro-Phe-Arg-AMC dissolved in assay buffer (10 μM in assay buffer) from Bachem, the mixture is incubated at room temperature (22° C.) for 30 min and fluorescence is then measured (excitation: 360 nm, emission: 460 nm). The measured emissions of the test batches with test substance are compared to those of control batches without test substance (only dimethyl sulphoxide instead of test substance in dimethyl sulphoxide), and IC50 values are calculated from the concentration/activity relationships.

Test [2] deals with human factor XIa (Homo sapiens (Human), UniProt P03951). Put plainly: Measurement of FXIa inhibition (fluorogenic peptide substrate Boc-Glu(OBzl)-Ala-Arg-AMC). The note with it: Table A, 30 min at 22° C., fluorescence. In kind it is biochemical. As for the experimental part: The factor XIa inhibition of the substances according to the invention is determined using a biochemical test system which utilizes the reaction of a peptidic factor XIa substrate to determine the enzymatic activity of human factor XIa. Here, factor XIa cleaves from the peptic factor XIa substrate the C-terminal aminomethylcoumarin (AMC), the fluorescence of which is measured. The determinations are carried out in microtitre plates.
1 μl of the diluted substance solutions is placed into each of the wells of white microtitre plates from Greiner (384 wells). […] After […] of incubation, the enzyme reaction is started by addition of 20 μl of the factor XIa substrate Boc-Glu(OBzl)-Ala-Arg-AMC dissolved in assay buffer (10 μM in assay buffer) from Bachem, the mixture is incubated at room temperature (22° C.) for 30 min and fluorescence is then measured (excitation: 360 nm, emission: 460 nm). The measured emissions of the test batches with test substance are compared to those of control batches without test substance (only dimethyl sulphoxide instead of test substance in dimethyl sulphoxide), and IC50 values are calculated from the concentration/activity relationships.

Usually IC50 stands for the concentration that inhibits the measured activity by half. Low values mean greater potency, high ones weaker potency. Turning to `COc1cn(C(Cc2ccncc2)C(=O)Nc2ccc(C(N)=O)nc2)c(=O)cc1-c1cc(Cl)ccc1C#N` (single isomer, unassigned; enantiomer 2) [Example 21, 5-({2-[4-(5-Chloro-2-cyanophenyl)-5-methoxy-2-oxopyridin-1(2H)-yl]-3-(pyridin-4-yl)propanoyl}amino)pyridine-2-carboxamide (enantiomer 2)], in test [1], inhibition was half-maximal at 0.004 µM (IC50). This lies in the single-digit nanomolar range.

For the compound `COc1cn(C(Cc2ccn(C)n2)C(=O)Nc2ccc(C(N)=O)nc2)c(=O)cc1-c1cc(C)ccc1C#N` (racemic) [Example 30, 5-({2-[4-(2-Cyano-5-methylphenyl)-5-methoxy-2-oxopyridin-1(2H)-yl]-3-(1-methyl-1H-pyrazol-3-yl)propanoyl}amino)pyridine-2-carboxamide (racemate)], the values for the IC50 in test [1] and in test [2] were 0.017 µM and 0.02 µM, respectively. In test [1], `CNC(=O)c1ccc(NC(=O)C(Cc2ccn(C)n2)n2cc(OC)c(-c3cc(C)ccc3C#N)cc2=O)cn1` (racemic) [Example 29, 5-({2-[4-(2-Cyano-5-methylphenyl)-5-methoxy-2-oxopyridin-1(2H)-yl]-3-(1-methyl-1H-pyrazol-3-yl)propanoyl}amino)-N-methylpyridine-2-carboxamide (racemate)] displayed an IC50 of 0.0082 µM. Compound `CNC(=O)c1ccc(NC(=O)C(CCOC)n2cc(OC)c(-c3cc(Cl)ccc3C#N)cc2=O)cn1` (racemic) [Example 26, 5-({2-[4-(5-Chloro-2-cyanophenyl)-5-methoxy-2-oxopyridin-1(2H)-yl]-4-methoxybutanoyl}amino)-N-methylpyridine-2-carboxamide (racemate)] registered an IC50 in test [1] of 0.0069 µM.

As for `CNC(=O)c1ccc(NC(=O)C(Cc2ccn(C)n2)n2cc(C)c(-c3cc(Cl)ccc3C#N)cc2=O)cn1` (racemic) [Example 43, 5-({2-[4-(5-Chloro-2-cyanophenyl)-5-methyl-2-oxopyridin-1(2H)-yl]-3-(1-methyl-1H-pyrazol-3-yl)propanoyl}amino)-N-methylpyridine-2-carboxamide (racemate)], the IC50 in test [1] was 0.065 µM; in test [2], 0.055 µM.

`COc1cn(C(Cc2ccn(C)n2)C(=O)Nc2ccc(C(N)=O)nc2)c(=O)cc1-c1cc(Cl)ccc1C#N` (racemic) [Example 19, 5-({2-[4-(5-Chloro-2-cyanophenyl)-5-methoxy-2-oxopyridin-1(2H)-yl]-3-(1-methyl-1H-pyrazol-3-yl)propanoyl}amino)pyridine-2-carboxamide (racemate)] yielded an IC50 in test [1] of 0.0043 µM. Same read-out and setting: for `COc1cn(C(Cc2ccn(C)n2)C(=O)Nc2cnc(C(N)=O)c(F)c2)c(=O)cc1-c1cc(Cl)ccc1C#N` (racemic) [Example 31, 5-({2-[4-(5-Chloro-2-cyanophenyl)-5-methoxy-2-oxopyridin-1(2H)-yl]-3-(1-methyl-1H-pyrazol-3-yl)propanoyl}amino)-3-fluoropyridine-2-carboxamide (racemate)] the value was 0.061 µM; for `CNC(=O)c1ccc(NC(=O)C(CCOC)n2cc(OC)c(-c3cc(NC)ccc3C#N)cc2=O)cn1` (racemic) [Example 45, 5-[(2-{4-[2-Cyano-5-(methylamino)phenyl]-5-methoxy-2-oxopyridin-1(2H)-yl}-4-methoxybutanoyl)amino]-N-methylpyridine-2-carboxamide (racemate)], 0.36 µM; for `COc1cn(C(Cc2ncco2)C(=O)Nc2ccc(C(N)=O)nc2)c(=O)cc1-c1cc(Cl)ccc1C#N` (racemic) [Example 36, 5-({2-[4-(5-Chloro-2-cyanophenyl)-5-methoxy-2-oxopyridin-1(2H)-yl]-3-(1,3-oxazol-2-yl)propanoyl}amino)pyridine-2-carboxamide (racemate)], 0.014 µM. For the compound `COc1cn(C(Cc2ccccn2)C(=O)Nc2ccc(C(N)=O)nc2)c(=O)cc1-c1cc(Cl)ccc1C#N` (stereo not drawn) [Example 6], the IC50 came out at 0.022 µM in test [1] and 0.02 µM in test [2].

On to `COc1cn(C(Cc2ccncc2)C(=O)Nc2ccc(C(N)=O)nc2)c(=O)cc1-c1cc(Cl)ccc1C#N` (single isomer, unassigned; enantiomer 1) [Example 44, 5-({2-[4-(5-Chloro-2-cyanophenyl)-5-methoxy-2-oxopyridin-1(2H)-yl]-3-(pyridin-4-yl)propanoyl}amino)pyridine-2-carboxamide (enantiomer 1)], for which the IC50 in test [1] amounted to 0.76 µM. That is a sub-micromolar value. The same measure, in the same setting: for `CNC(=O)c1ccc(NC(=O)C(CCOC)n2cc(OC)c(-c3cc(Cl)ccc3C#N)cc2=O)cn1` (single isomer, unassigned; enantiomer 2) [Example 27, 5-({2-[4-(5-Chloro-2-cyanophenyl)-5-methoxy-2-oxopyridin-1(2H)-yl]-4-methoxybutanoyl}amino)-N-methylpyridine-2-carboxamide (enantiomer 2)] the value was 0.0062 µM; for `CNC(=O)c1ccc(NC(=O)C(CC2=NOCC2)n2cc(OC)c(-c3cc(Cl)ccc3C#N)cc2=O)cn1` (racemic) [Example 42, 5-({2-[4-(5-Chloro-2-cyanophenyl)-5-methoxy-2-oxopyridin-1(2H)-yl]-3-(4,5-dihydro-1,2-oxazol-3-yl)propanoyl}amino)-N-methylpyridine-2-carboxamide (racemate)], 0.03 µM; for `COc1cn(C(Cc2cnco2)C(=O)Nc2cnc(C(N)=O)c(F)c2)c(=O)cc1-c1cc(Cl)ccc1C#N` (racemic) [Example 37, 5-({2-[4-(5-Chloro-2-cyanophenyl)-5-methoxy-2-oxopyridin-1(2H)-yl]-3-(1,3-oxazol-5-yl)propanoyl}amino)-3-fluoropyridine-2-carboxamide (racemate)], 0.014 µM. For the compound `COCCC(C(=O)Nc1ccc(C(N)=O)nc1)n1cc(OC)c(-c2cc(Cl)c(F)cc2C#N)cc1=O` (racemic) [Example 47, 5-({2-[4-(5-Chloro-2-cyano-4-fluorophenyl)-5-methoxy-2-oxopyridin-1(2H)-yl]-4-methoxybutanoyl}amino)pyridine-2-carboxamide (racemate)], the figures for the IC50 in test [1] and in test [2] were 0.18 µM and 0.22 µM, respectively. In the same order, the values of `COc1cn(C(Cc2ccncc2)C(=O)Nc2ccc(C(N)=O)nc2)c(=O)cc1-c1cc(Cl)ccc1C#N` (stereo not drawn) [Example 9] are 0.008 µM and 0.009 µM.
